Experimental data published in ChEMBL document CHEMBL3286325, “Synthesis and evaluation of three structurally related ¹⁸F-labeled orvinols of different intrinsic activities: 6-O-[¹⁸F]fluoroethyl-diprenorphine ([¹⁸F]FDPN), 6-O-[¹⁸F]fluoroethyl-buprenorphine ([¹⁸F]FBPN), and 6-O-[¹⁸F]fluoroethyl-phenethyl-orvinol ([¹⁸F]FPEO)” (2014).

Sequences of proteins named here, by UniProt entry; tags and fusion partners are left off.
UniProt P35372, whole entry: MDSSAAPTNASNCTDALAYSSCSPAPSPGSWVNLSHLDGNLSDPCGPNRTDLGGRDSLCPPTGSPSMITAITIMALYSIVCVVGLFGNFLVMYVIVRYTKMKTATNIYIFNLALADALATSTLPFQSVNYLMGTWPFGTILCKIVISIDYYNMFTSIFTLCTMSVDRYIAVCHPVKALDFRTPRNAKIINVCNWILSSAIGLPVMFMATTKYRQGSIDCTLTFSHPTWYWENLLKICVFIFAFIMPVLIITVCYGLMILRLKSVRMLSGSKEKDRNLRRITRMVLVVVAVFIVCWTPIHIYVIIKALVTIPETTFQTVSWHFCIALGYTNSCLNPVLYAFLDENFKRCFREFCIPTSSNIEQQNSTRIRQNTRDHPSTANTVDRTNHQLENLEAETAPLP
UniProt P41143, whole entry: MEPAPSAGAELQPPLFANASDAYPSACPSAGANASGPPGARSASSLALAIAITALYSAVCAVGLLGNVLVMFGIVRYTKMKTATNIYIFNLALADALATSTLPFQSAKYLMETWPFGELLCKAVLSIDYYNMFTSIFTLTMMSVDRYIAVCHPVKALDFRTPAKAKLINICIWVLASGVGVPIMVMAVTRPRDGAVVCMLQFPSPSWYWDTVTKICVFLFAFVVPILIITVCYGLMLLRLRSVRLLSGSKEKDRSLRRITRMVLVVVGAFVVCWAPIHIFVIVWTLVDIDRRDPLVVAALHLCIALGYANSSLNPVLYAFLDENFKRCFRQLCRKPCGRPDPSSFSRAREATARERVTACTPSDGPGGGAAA
UniProt P41145, whole entry: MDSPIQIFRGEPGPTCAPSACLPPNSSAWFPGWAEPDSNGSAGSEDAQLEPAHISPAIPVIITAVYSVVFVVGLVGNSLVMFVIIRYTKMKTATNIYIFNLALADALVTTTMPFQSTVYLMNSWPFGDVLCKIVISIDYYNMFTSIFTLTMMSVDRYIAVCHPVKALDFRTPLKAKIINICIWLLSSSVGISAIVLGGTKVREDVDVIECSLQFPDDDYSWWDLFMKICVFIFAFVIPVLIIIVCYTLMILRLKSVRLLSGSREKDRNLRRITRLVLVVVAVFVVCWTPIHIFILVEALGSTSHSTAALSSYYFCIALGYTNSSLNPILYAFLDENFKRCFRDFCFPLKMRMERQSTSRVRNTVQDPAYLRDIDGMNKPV

Tests used:
[1] = target: Mu-type opioid receptor (Homo sapiens, UniProt P35372); assay: Binding affinity to human cloned mu opioid receptor expressed in CHO cells by radioligand displacement assay
[2] = target: Delta-type opioid receptor (Homo sapiens, UniProt P41143); assay: Binding affinity to human cloned delta opioid receptor expressed in CHO cells by radioligand displacement assay
[3] = target: Kappa-type opioid receptor (Homo sapiens, UniProt P41145); assay: Binding affinity to human cloned kappa opioid receptor expressed in HEK293 cells by radioligand displacement assay
[4] = test system: Cerebellum; assay: Ratio of SUV of drug uptake in Sprague-Dawley basal ganglia to cerebellum at 8 to 68 GBq/umol, iv up to 85 mins by PET analysis; conditions: rat, in vivo, strain Sprague-Dawley
[5] = test system: Serum; assay: Drug uptake in Sprague-Dawley rat serum at 8 to 10 MBq after 5 mins; conditions: strain Sprague-Dawley
[6] = test system: Serum; assay: Drug uptake in Sprague-Dawley rat serum at 40 to 80 MBq, iv after 5 mins; conditions: in vivo, strain Sprague-Dawley
[7] = test system: Serum; assay: Drug uptake in Sprague-Dawley rat serum at 40 to 80 MBq, iv after 40 mins; conditions: in vivo, strain Sprague-Dawley
[8] = Binding affinity to Sprague-Dawley rat serum protein at 40 to 80 MBq, iv after 40 mins; conditions: strain Sprague-Dawley
[9] = test system: Blood; assay: Metabolic stability in Sprague-Dawley rat blood assessed as intact compound level at 40 to 80 MBq, iv after 5 mins by radio-TLC analysis; conditions: strain Sprague-Dawley
[10] = test system: Blood; assay: Metabolic stability in Sprague-Dawley rat blood assessed as intact compound level at 40 to 80 MBq, iv after 20 mins by radio-TLC analysis; conditions: strain Sprague-Dawley
[11] = test system: Blood; assay: Metabolic stability in Sprague-Dawley rat blood assessed as intact compound level at 40 to 80 MBq, iv after 40 mins by radio-TLC analysis; conditions: strain Sprague-Dawley
[12] = test system: Brain; assay: Metabolic stability in Sprague-Dawley rat brain assessed as remaining compound level at 40 to 80 MBq, iv after 5 mins; conditions: in vivo, strain Sprague-Dawley
[13] = test system: Brain; assay: Metabolic stability in Sprague-Dawley rat brain assessed as remaining compound level at 40 to 80 MBq, iv after 20 mins; conditions: in vivo, strain Sprague-Dawley
[14] = test system: Brain; assay: Metabolic stability in Sprague-Dawley rat brain assessed as remaining compound level at 40 to 80 MBq, iv after 40 mins; conditions: in vivo, strain Sprague-Dawley
[15] = test system: Brain; assay: Metabolic stability in Sprague-Dawley rat brain assessed as intact compound level at 40 to 80 MBq, iv after 5 mins by radio-TLC analysis; conditions: in vivo, strain Sprague-Dawley
[16] = test system: Brain; assay: Metabolic stability in Sprague-Dawley rat brain assessed as intact compound level at 40 to 80 MBq, iv after 20 mins by radio-TLC analysis; conditions: in vivo, strain Sprague-Dawley
[17] = test system: Brain; assay: Metabolic stability in Sprague-Dawley rat brain assessed as intact compound level at 40 to 80 MBq, iv after 40 mins by radio-TLC analysis; conditions: in vivo, strain Sprague-Dawley

SMILES | Ki [1] | Ki [2] | Ki [3] | Ratio [4] | Drug uptake [5] | Drug uptake [6] | Drug uptake [7] | PB [8] | Stability [9] | Stability [10] | Stability [11] | Stability [12] | Stability [13] | Stability [14] | Stability [15] | Stability [16] | Stability [17]
CC(C)(C)[C@@](C)(O)[C@H]1C[C@@]23CC[C@]1(OCCF)[C@@H]1Oc4c(O)ccc5c4[C@@]12CCN(CC1CC1)[C@@H]3C5 | 240 pM | 2100 pM | 120 pM | – | – | – | – | – | – | – | – | – | – | – | – | – | –
CC(C)(C)[C@@](C)(O)[C@H]1C[C@@]23CC[C@]1(OCC[18F])[C@@H]1Oc4c(O)ccc5c4[C@@]12CCN(CC1CC1)[C@@H]3C5 | – | – | – | 3.01 | 16% | 60% | 50% | 11% | 39.3% | 27.4% | 27.5% | 94% | 92% | 93% | 94.6% | 98% | 96.9%
CC(C)(O)[C@H]1C[C@@]23CC[C@@]1(OCCF)[C@@H]1Oc4c(O)ccc5c4[C@@]12CCN(CC1CC1)[C@@H]3C5 | 240 pM | 8000 pM | 200 pM | – | – | – | – | – | – | – | – | – | – | – | – | – | –
